The text below walks through data of US12545892B2, “Application of TGF-B inhibitor in inducing neural stem cells and organoid formation” (IREGENE THERAPEUTICS, CO., LTD., priority 2020, dated 2026).

In the assay the test system is Human pluripotent stem cells. The assay can be described thus: CyQuant assay of medium components (cell viability in long-term culture). As to conditions: different concentrations, FIG. 2b-2c. It is filed as cell-based. The method, then: The Cyquant assay was used to perform the quantitative detection of cell viability, thus investigating the effect of LY2157299 on the physiological state of the cells during long-term culture of the cells; Among them, the LSB method was used as the control group. 96-well light-tight cell culture plates were coated; after the coating was complete, cells were seeded separately at 5×10^4 cell number per well and three sets of parallel replicates were set (the average of three sets was calculated as data) to repeat the procedure of example 2.1. Wherein, the culture procedures described previously were incubated at 37° C. with 5% CO2. Samples were taken on days 1, 5, 10, 15 and 20 for cell viability assay using CyQuant Kit (Invitrogen, cat. No: X12223). The aforementioned assay was operated according to the instructions with a Spectramax i3 Multi-Mode Microplate Reader (VWR, model number: ID3-STD) for data reading. […] Combined with cost factors, the range of recombinant insulin and recombinant serum albumin used by the present invention falls within the range of optimal use.

For the substance “recombinant serum albumin: medium component screened at different concentrations for cell growth”, the “effect of concentration on cell proliferation (CyQuant)” value is given as “positively correlated with the rate of cell proliferation”.
